Values of other authors in patent US20240189234A1, “SILICON PARTICLES FOR DRUG DELIVERY” (NACAMED AS, priority 2021, published 2024).

Settings: calculated log P values from Foye's Principles of Medicinal Chemistry

Compound | log P
CCC(=O)N(c1ccccc1)C1CCN(CCc2ccccc2)CC1 | 3.68
CCC(=O)N(c1ccccc1)C1(COC)CCN(CCc2cccs2)CC1 | 3.95

Only a part of the results on these compounds is given; other tests are left out.
